Measurements reported in PubChem BioAssay (EPA / NIEHS).
Only a part is listed here, and it is no random draw. Records with an inconclusive call do not appear. Calls of active or inactive are those of the source. Rule for the calls, unless noted: active = hit-call score of the fitted dose curve at least 0.9, where 1 is the maximum; inconclusive = response in the unintended direction; inactive = score below 0.9.

Amino acid sequences for entries named in this document (tags omitted).
UniProt P03372, whole entry: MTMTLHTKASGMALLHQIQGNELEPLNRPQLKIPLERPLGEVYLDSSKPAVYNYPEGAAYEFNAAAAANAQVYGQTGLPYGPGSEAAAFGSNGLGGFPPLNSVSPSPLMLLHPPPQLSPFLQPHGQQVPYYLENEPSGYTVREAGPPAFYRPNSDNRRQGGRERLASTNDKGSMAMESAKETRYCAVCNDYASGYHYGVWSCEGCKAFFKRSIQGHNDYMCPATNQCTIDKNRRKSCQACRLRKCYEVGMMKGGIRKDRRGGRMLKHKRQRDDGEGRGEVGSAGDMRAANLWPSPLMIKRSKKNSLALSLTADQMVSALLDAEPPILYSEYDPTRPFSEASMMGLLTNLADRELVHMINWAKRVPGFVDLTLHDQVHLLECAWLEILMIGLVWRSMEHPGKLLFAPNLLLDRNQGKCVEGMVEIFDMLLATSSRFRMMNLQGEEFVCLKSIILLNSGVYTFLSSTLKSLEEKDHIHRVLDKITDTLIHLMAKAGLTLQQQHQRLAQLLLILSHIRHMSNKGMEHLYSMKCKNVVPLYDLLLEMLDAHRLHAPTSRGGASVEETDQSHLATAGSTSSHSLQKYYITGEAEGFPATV
UniProt Q92731, whole entry: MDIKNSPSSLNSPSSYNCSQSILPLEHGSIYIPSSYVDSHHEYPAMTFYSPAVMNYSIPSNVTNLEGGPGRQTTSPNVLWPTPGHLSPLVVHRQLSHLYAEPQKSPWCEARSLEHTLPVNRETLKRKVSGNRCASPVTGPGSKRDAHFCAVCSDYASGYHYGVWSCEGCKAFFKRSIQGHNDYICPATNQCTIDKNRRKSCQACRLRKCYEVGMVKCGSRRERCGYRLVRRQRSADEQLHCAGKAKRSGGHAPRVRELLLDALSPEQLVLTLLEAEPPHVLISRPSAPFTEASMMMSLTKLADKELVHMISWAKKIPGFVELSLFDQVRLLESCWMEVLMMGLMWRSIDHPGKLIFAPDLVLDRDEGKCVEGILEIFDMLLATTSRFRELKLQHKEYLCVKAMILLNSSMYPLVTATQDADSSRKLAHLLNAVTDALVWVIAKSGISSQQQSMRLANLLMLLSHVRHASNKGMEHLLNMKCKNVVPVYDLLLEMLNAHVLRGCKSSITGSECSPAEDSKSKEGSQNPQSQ
UniProt P19793, whole entry: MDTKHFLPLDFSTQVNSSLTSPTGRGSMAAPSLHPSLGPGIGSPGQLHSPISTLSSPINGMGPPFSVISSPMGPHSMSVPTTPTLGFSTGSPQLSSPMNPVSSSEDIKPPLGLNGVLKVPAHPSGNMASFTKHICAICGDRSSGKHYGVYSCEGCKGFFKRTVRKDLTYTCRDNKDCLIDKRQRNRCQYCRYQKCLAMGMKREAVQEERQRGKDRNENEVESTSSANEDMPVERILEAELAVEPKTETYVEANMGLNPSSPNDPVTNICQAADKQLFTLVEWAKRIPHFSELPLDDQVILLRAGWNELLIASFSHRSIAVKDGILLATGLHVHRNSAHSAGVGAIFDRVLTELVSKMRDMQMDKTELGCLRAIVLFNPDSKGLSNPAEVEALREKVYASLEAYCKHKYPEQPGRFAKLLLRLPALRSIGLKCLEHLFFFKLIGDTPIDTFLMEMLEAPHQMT
UniProt P37231, whole entry: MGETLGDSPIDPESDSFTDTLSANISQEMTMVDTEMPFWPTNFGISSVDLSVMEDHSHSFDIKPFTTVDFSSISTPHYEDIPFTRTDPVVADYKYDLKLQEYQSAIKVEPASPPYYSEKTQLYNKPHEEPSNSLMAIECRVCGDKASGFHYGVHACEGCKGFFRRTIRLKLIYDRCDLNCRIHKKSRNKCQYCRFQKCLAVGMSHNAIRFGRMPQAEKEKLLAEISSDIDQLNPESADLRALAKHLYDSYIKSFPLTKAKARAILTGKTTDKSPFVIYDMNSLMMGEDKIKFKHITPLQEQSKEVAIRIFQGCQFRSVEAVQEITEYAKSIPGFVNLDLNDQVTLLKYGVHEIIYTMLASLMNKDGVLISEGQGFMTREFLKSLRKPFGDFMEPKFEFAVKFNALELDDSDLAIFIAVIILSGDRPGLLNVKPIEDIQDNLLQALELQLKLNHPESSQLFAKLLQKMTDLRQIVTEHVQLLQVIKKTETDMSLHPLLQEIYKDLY
UniProt P10275, whole entry: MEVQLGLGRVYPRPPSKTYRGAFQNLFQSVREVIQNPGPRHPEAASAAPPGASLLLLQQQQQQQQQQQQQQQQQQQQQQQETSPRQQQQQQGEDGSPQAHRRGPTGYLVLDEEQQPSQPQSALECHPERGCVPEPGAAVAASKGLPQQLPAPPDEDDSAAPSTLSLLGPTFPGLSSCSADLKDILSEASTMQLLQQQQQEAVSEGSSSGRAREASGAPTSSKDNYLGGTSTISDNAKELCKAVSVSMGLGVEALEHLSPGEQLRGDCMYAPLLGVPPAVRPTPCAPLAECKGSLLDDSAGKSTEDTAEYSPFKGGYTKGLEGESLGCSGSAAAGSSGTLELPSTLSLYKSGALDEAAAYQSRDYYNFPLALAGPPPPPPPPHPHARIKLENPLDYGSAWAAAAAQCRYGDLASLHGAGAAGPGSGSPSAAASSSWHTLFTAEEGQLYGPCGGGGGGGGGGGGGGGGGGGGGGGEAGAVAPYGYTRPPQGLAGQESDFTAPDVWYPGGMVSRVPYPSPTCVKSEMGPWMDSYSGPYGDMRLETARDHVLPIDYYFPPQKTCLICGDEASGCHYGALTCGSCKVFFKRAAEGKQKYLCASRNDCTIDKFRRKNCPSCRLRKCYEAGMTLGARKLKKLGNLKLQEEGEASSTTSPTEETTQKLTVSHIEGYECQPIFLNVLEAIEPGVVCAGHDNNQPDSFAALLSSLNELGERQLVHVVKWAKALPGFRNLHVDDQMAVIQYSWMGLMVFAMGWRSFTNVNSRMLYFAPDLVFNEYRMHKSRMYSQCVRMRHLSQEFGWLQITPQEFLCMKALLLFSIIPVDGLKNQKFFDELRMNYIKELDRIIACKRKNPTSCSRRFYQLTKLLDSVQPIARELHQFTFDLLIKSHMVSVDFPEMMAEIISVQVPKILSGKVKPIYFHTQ
UniProt Q01827, whole entry: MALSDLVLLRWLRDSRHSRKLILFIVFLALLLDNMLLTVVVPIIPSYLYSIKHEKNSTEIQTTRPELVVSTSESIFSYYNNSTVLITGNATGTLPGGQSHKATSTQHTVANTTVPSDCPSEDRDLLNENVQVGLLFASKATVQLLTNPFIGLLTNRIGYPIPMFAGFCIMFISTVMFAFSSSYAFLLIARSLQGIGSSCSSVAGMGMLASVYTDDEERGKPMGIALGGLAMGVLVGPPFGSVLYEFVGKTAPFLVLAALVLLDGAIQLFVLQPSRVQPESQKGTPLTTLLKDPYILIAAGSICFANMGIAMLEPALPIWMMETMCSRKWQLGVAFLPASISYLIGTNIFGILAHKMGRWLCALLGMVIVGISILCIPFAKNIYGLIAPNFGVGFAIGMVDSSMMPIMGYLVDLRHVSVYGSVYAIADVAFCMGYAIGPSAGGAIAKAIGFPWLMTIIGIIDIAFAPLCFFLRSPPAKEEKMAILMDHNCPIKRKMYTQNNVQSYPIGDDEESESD
UniProt Q96RI1, whole entry: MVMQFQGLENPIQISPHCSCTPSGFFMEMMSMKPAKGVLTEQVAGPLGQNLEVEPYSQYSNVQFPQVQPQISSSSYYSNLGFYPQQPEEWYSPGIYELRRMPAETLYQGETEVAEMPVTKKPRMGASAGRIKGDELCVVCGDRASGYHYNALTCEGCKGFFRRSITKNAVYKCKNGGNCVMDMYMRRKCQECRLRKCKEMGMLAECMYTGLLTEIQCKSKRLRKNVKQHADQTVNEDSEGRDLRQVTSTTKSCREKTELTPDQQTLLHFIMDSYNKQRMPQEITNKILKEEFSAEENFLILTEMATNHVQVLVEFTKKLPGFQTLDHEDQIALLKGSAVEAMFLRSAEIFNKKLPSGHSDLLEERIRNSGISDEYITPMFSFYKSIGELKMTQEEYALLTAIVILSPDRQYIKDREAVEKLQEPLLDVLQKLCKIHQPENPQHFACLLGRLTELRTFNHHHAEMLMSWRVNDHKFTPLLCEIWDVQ
UniProt P31652, whole entry: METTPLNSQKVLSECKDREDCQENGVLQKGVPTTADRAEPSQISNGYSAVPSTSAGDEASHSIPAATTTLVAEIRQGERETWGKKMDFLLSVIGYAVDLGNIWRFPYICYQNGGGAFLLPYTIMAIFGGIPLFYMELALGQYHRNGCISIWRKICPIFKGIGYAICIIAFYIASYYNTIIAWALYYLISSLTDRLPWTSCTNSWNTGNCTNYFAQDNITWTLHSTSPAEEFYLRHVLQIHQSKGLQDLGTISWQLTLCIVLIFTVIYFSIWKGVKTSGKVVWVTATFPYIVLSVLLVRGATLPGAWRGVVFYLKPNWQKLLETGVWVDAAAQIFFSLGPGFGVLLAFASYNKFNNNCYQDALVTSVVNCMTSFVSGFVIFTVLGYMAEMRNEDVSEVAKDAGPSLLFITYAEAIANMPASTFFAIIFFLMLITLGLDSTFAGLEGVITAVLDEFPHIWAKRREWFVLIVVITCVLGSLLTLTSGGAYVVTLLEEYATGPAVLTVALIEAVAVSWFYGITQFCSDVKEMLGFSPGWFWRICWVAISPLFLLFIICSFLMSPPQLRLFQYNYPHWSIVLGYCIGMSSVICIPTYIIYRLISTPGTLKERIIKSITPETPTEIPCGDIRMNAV

How the values were obtained:
[1] = molecular target: Estrogen receptor (Homo sapiens) (UniProt P03372); experiment: OT_ER_ERaERa_1440: Odyssey Thera (OT) 24-hour HEK293T Protein-Complementation Assay for Estrogen Receptor-alpha/-alpha Homodimer (AID 2283349);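 note: hits raise fluorescence above DMSO for agonists and antagonists alike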
In short: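 Cells (HEK293T) carrying the fragment-tagged ERα LBD (aa 310-547) pair are treated with chemical for 24 hours. Nuclear and/or cytoplasmic fluorescence is then quantified on a laser scanning cytometer. Activity is scored as signal gain against DMSO.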

[2] = molecular target: Estrogen receptor (Homo sapiens) (UniProt P03372); experiment: OT_ER_ERaERa_0480: Odyssey Thera (OT) 8-hour HEK293T Protein-Complementation Assay for Estrogen Receptor-alpha/-alpha Homodimer (AID 2283351);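 note: rise in fluorescence from reassembled reporter fragments on ERα LBD homodimer in nucleus or whole cell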
In short: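 HEK293T cells stably expressing a PCA pair of ER alpha LBD (residues 310-547) were dosed for 8 hours. The gain in fluorescence intensity, nuclear for agonists and whole-cell for antagonists, was measured by laser scanning cytometry against DMSO vehicle.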

[3] = molecular target: T1, Estrogen receptor (Homo sapiens) + Estrogen receptor beta (Homo sapiens) (UniProt P03372+Q92731); experiment: OT_ER_ERaERb_0480: Odyssey Thera (OT) 8-hour HEK293T Protein-Complementation Assay for Estrogen Receptor-alpha/-beta Heterodimer (AID 2283352)
In short: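 Increase in mean fluorescence intensity, measured by laser scanning plate cytometry, reported ER-alpha/ER-beta LBD complementation in HEK293T cells after 8 h chemical exposure. DMSO served as baseline; basal signal is low, punctate and cytoplasmic.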

[4] = molecular target: T1, Estrogen receptor (Homo sapiens) + Estrogen receptor beta (Homo sapiens); experiment: OT_ER_ERaERb_1440: Odyssey Thera (OT) 24-hour HEK293T Protein-Complementation Assay for Estrogen Receptor-alpha/-beta Homodimer (AID 2283356);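 note: heteromer of ER alpha and ER beta binding domains; hits raise reporter fluorescence and both agonists and antagonists give an increase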
In short: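 Heterodimerisation of ERα (aa 310-547) and ERβ (aa 263-489) ligand binding domains was tracked as fluorescence gain in stably transfected HEK293T cells following 24 h dosing, normalised to DMSO controls.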

[5] = molecular target: Estrogen receptor beta (Homo sapiens) (UniProt Q92731); experiment: OT_ER_ERbERb_0480: Odyssey Thera (OT) 8-hour HEK293T Protein-Complementation Assay for Estrogen Receptor-beta/-beta Homodimer (AID 2283357);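 note: active means signal gain over DMSO baseline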
In short: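 Homodimerization of ER-beta LBD measured by protein-fragment complementation in HEK293T; 8 h dosing; fixed, Draq5 counterstain; fluorescence intensity gain over DMSO baseline, positive fitting direction; laser scanning cytometry.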

[6] = molecular target: Estrogen receptor beta (Homo sapiens) (UniProt Q92731); experiment: OT_ER_ERbERb_1440: Odyssey Thera (OT) 24-hour HEK293T Protein-Complementation Assay for Estrogen Receptor-beta/-beta Homodimer (AID 2283380);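 note: scored as signal increase over DMSO baseline for both agonists and antagonists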
In short: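 HEK293T cells stably expressing ER beta LBD (aa 310-547) homodimer fragment-complementation reporter, dosed 24 h. Cells formaldehyde-fixed, Draq5-stained; gain in nuclear (agonist) or nuclear plus cytoplasmic (antagonist) fluorescence versus DMSO read by laser scanning cytometry.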

[7] = molecular target: Estrogen receptor (Homo sapiens) (UniProt P03372); experiment: OT_ERa_GFPERaERE_0480: Odyssey Thera (OT) 8-hour HeLa Transcription Induction Assay for Estrogen Receptor (AID 2283381; active = hit-call score of the fitted dose curve at least 0.9, where 1 is the maximum; inactive = score below 0.9)
In short: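 Fluorescence microscopy with high-content image analysis measures ERE-driven GFP induction in HeLa cells at 8 h post-dose. Increases fitted against DMSO baseline.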

[8] = molecular target: Estrogen receptor (Homo sapiens) (UniProt P03372); experiment: OT_ERa_GFPERaERE_0120: Odyssey Thera (OT) 2-hour HeLa Transcription Induction Assay for Estrogen Receptor (AID 2283382)
In short: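 Fluorescence-microscopy images of the GFP-ERα/ERE reporter, scored by high-content image algorithms, give the readout. HeLa exposure lasted 2 h, and only signal increase over DMSO was fitted.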

[9] = molecular target: Retinoic acid receptor RXR-alpha (Homo sapiens) (UniProt P19793); experiment: OT_NURR1_NURR1RXRa_1440: Odyssey Thera (OT) 24-hour HEK293T Protein Complementation Assay for Nurr1/retinoid X receptor (RXR) (AID 2283386)
In short: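 Gain in fluorescence, fitted relative to DMSO, reflects Nurr1–RXRα association in HEK293T cells after 24 h dosing. Bait and prey are each linked to a reporter-protein fragment that reassembles on interaction.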

[10] = molecular target: Peroxisome proliferator-activated receptor gamma (Homo sapiens) (UniProt P37231); experiment: OT_PPARg_PPARgSRC1_0480: Odyssey Thera (OT) 8-hour Protein-Complementation Assay for Peroxisome Proliferator-activated Receptor Gamma / SRC-1 Co-activator (AID 2283387);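 note: nuclear to cytoplasmic split Venus YFP fluorescence ratio reporting PPARg SRC-1 interaction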
In short: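 Split-YFP (IFP1/IFP2) PPARg/SRC-1 reporter, HEK293T, 37 °C, 5% CO2; 8 h compound; formaldehyde fix + Draq5; high-content imaging, N/C ratio, ≥350 cells/image, positive direction vs DMSO.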

[11] = molecular target: Androgen Receptor/SRC-1 Co-activator, AR (gene 367) (UniProt P10275); experiment: OT_AR_ARSRC1_0960: Odyssey Thera (OT) 16-hour HEK293T Protein-Complementation Assay for Androgen Receptor/SRC-1 Co-activator (AID 2283353);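 note: actives raise the signal above DMSO so potency reflects increased AR and SRC-1 complex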
In short: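 Endpoint is gain-of-signal N/C fluorescence ratio in the 488 nm channel versus DMSO, from at least 400 cells per image, measured 16 h post-dosing. Cells: HEK293T stably carrying split-Venus AR/SRC-1 complementation constructs.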

[12] = molecular target: Androgen Receptor/SRC-1 Co-activator, AR (gene 367) (UniProt P10275); experiment: OT_AR_ARSRC1_0480: Odyssey Thera (OT) 8-hour HEK293T Protein-Complementation Assay for Androgen Receptor/SRC-1 Co-activator (AID 2283354);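 note: hits raise the complementation signal above DMSO so AC50 marks enhancers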
In short: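 Split-Venus PCA, stable HEK293T, AR/SRC-1 fusions; 8 h exposure. Readout: 488nm N/C fluorescence ratio, ≥400 cells/image; fitted upward vs DMSO baseline.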

[13] = molecular target: Peroxisome proliferator-activated receptor gamma (Homo sapiens) (UniProt P37231); experiment: NVS_NR_hPPARg: NovaScreen (NVS) Nuclear Receptor Binding Assay for human Peroxisome Proliferator-activated Receptor gamma (PPARg) (AID 2283370)
In short: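 Fluorescence polarization measures competitive binding to extracted PPARg in a cell-free format. Reading is taken at 2 h; activity is signal loss relative to DMSO. Screening at 25 uM in duplicate preceded confirmatory dose series.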

[14] = molecular target: Agonist Androgen Response Element (ARE), AR (gene 367) (UniProt P10275); experiment: OT_AR_ARELUC_AG_1440: Odyssey Thera (OT) 24-hour CHO-K1 Luciferase Assay for Agonist Androgen Response Element (ARE) (AID 2283379)
In short: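 Gain-of-signal reporter endpoint: cells (CHO-K1, hamster) are treated 24 h, luciferin/ATP reagent added, and luminescence compared with DMSO baseline.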

[15] = molecular target: Retinoic acid receptor RXR-alpha (Homo sapiens) (UniProt P19793); experiment: OT_NURR1_NURR1RXRa_0480: Odyssey Thera (OT) 8-hour HEK293T Protein Complementation Assay for Nurr1/retinoid X receptor (RXR) (AID 2283385)
In short: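 Interaction of Nurr1 with RXRα read as reconstituted reporter fluorescence in a HEK293T fragment-complementation system, 8 h post-treatment; increase over DMSO baseline analysed.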

[16] = molecular target: Norway rat Vesicular Monoamine Transporter (VMAT2), neurotransmitter transporter, Slc18a2 (gene 25549) (UniProt Q01827); experiment: NVS_TR_rVMAT2: NovaScreen (NVS) Transporter Assay for Norway rat Vesicular Monoamine Transporter (VMAT2), neurotransmitter transporter (AID 2283376);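 note: actives lower the bound radioligand signal below the DMSO level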
In short: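 Filter-based scintillation counting of radioligand bound to rat forebrain-derived VMAT2 protein, cell-free, 1 h post-dose. Signal loss relative to DMSO control scored; single-concentration duplicate screen (25 uM) followed by concentration-response testing of actives.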

[17] = molecular target: Estrogen receptor (Homo sapiens) (UniProt P03372); experiment: NVS_NR_hER: NovaScreen (NVS) Nuclear Receptor Binding Assay for human Estrogen Receptor (ER) (AID 2283348)
In short: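 MCF7-derived receptor extract, radiolabelled ligand, competitive displacement. Read: scintillation counts at 18 h. DMSO = negative control/baseline. Primary 25 uM duplicate; follow-up concentration–response.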

[18] = molecular target: Bile acid receptor (Homo sapiens) (UniProt Q96RI1); experiment: OT_FXR_FXRSRC1_0480: Odyssey Thera (OT) 8-hour HEK293T Protein-Complementation Assay for Farnesoid X receptor/SRC-1 Co-activator (AID 2283383)
In short: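 Binding of FXR to coactivator SRC-1 was read as fluorescence from a reconstituted split reporter in HEK293T cells, 8 h after chemical addition. Only increases in signal versus DMSO were fit.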

[19] = molecular target: Bile acid receptor (Homo sapiens) (UniProt Q96RI1); experiment: OT_FXR_FXRSRC1_1440: Odyssey Thera (OT) 24-hour HEK293T Protein-Complementation Assay for Farnesoid X receptor/SRC-1 Co-activator (AID 2283384)
In short: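 Protein-fragment complementation: FXR and SRC-1 fused to reporter fragments that reassemble on interaction, read by fluorescence intensity. Human HEK293T cells measured 24 h post-dose; positive-direction fit versus DMSO.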

[20] = molecular target: rat Serotonin Transporter (SERT), Slc6a4 (gene 25553) (UniProt P31652); experiment: NVS_TR_rSERT: NovaScreen (NVS) Transporter Assay for rat Serotonin Transporter (SERT) (AID 2283375)
In short: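 Steps: rat forebrain membranes dosed with chemical (25 uM duplicate primary; concentration series for actives); 1 h incubation; labelled ligand bound, filtered, counted by scintillation. Activity scored as signal loss vs DMSO.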

Measured: AC50

COP(C)(=O)OC
inactive: [1] | [2] | [3] | [4] | [5] | [6] | [7] | [8] | [9] | [10]

Cc1cccc([N+](=O)[O-])c1[N+](=O)[O-]
inactive: [11] | [12] | [13] | [14] | [15] | [9] | [10]

Cc1ccc([N+](=O)[O-])cc1[N+](=O)[O-]
active: [16] 15.9 µM
inactive: [15] | [9] | [10]

O=[N+]([O-])OCC(CO[N+](=O)[O-])(CO[N+](=O)[O-])CO[N+](=O)[O-]
not listed: [12] | [15] | [16] | [19] | [20]
inactive: all other assays above

O=[N+]([O-])c1cccc([N+](=O)[O-])c1
not listed: [11] | [12] | [13] | [14] | [16] | [17] | [20]
inactive: all other assays above

Cc1c([N+](=O)[O-])cccc1[N+](=O)[O-]
inactive: [19] | [15] | [9] | [10]

CC(C)OP(C)(=O)OC(C)C
active: [20] 9.8 µM
inactive: [1] | [2] | [3] | [4] | [6] | [7] | [8] | [15] | [9] | [10]
